How the values were obtained:
S. pombe Mae1 permease = molecular target: T1, S. pombe Mae1 permease (Schizosaccharomyces pombe, UniProt P50537); assay: Transport assays for 14C-labelled L-malic, succinic, malonic and α-ketoglutaric acids in S. pombe wild-type, mae1- mutant and complemented mutant; assay type: cell-based
T1 construct: endogenous in cells; host or cells: S. pombe 972 leu1-32 h- (wild type); also the mae1- mutant complemented with the 3.4 kb SmaI genomic mae1 fragment in pRS315
T1 sequence (P50537 1-438): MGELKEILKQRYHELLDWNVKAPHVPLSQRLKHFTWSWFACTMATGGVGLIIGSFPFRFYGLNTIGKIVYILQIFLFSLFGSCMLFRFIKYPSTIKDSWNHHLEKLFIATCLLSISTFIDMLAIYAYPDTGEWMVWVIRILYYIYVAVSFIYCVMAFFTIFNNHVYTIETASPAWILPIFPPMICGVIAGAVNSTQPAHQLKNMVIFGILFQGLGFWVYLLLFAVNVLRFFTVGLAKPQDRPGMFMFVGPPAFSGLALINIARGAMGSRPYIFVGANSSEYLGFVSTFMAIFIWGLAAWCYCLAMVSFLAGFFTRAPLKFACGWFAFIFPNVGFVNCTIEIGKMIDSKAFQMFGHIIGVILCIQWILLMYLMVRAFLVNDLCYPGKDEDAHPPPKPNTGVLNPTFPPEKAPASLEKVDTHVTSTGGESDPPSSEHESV
Description: Yeast cells in the logarithmic growth phase (OD of 1.2 at A595) were harvested and washed three times with 0.1 M KCI (pH 3.5). The cells were resuspended in 4 ml 0.1 M KCI (pH 3.5) and stored at 4° C. Transport assays were completed within 3 h. The cell suspensions were pre-incubated for 5 min in a shaker water bath at 30° C. at 100 rpm. Assays were initiated by adding 25 μl of ^14C-labelled L malate (45 μCi/μmol) (Amersham), 100 μl of succinic acid (42 μCi/μmol) (ICN), 100 μl malonic add (56.7 μCi/μmol) (Du Pont) or 100 μl a-ketoglutarate (51.8 μCi/μmol) (Du Pont). A 0.5-ml sample was withdrawn at 10, 20, 40, 60, and 120 sec intervals, rapidly filtered through 0.45 μm membranes (Mllipore Corporation, Bedford, Mass.), and immediately washed three times with 5 ml amounts of ice-cold 0.1 M KCI (pH 3.5). Filters containing the cells were oven-dried at 50° C. and placed in scintillation vials containing 5 ml of scintillation reaction mixture (Boehringer Mannheim, Mannheim, Germany). Pre-boiled (5 min) cells were used to determine non-specific binding of [^14C] malate, succinate, malonate and α-ketoglutarate to the yeast cells.
Malic, succinic, malonic and α-ketoglutaric acid transport assays were done using a wild-type strain of S. pombe, a mae1-mutant and the mae1-mutant complemented with the mae1 gene.

[1] = molecular target: T2, L-malic acid carrier in S. pombe (Schizosaccharomyces pombe, UniProt P50537); settings: Sousa et al. (1992); cited from earlier work
T2 construct: host or cells: S. pombe cells (per the assay title)
T2 sequence (P50537 1-438): T1 sequence (P50537 1-438)

transport by the S. pombe strains (S. pombe Mae1 permease): not transported
SMILES: O=C(O)CCC(=O)C(=O)O [α-ketoglutaric acid]
inhibition of initial uptake rates of L-malic acid [1]: competitive inhibition

Source: patent publication US20020081684A1, “Method and nucleotide sequence for transforming microorganisms” (priority 1995, published 2002)
